Tested on: [H][C@@]12C[C@H](CC)[C@]3([H])N(CCc4c([nH]c5ccccc45)[C@]3([H])C1)C2
Assay: cells, lysate or membranes
Settings: NADPH, HEPES, pH 8 (relative-rate assays adjusted to optimum), 30 °C, 25 min, Artemisia annua P450 reductase co-expressed

With “I10H (ibogamine-10-hydroxylase; P450 candidate 3) (Tabernanthe iboga)” the Km was 11.4 ± 1.87 µM.

Reference: publication PMC6130943, “Cytochrome P450 and O-methyltransferase catalyze the final steps in the biosynthesis of the anti-addictive alkaloid ibogaine from Tabernanthe iboga” (The Journal of Biological Chemistry, 2018)
